Test results as given in article PMC5156471, “Complementary pharmacological and toxicological characterization data on the pharmacological profile of N-(2,6-dichlorophenyl)-2-(4-methyl-1-piperidinyl) acetamide” (Data in Brief, 2016).

Key:
[1] = tested on: ICR male mice; test: Acute toxicity in mice by the Lorke method; settings: for Dead mice: i.p., dead/treated, observed 14 days
Experimental: Experiments were performed on ICR male mice by the Lorke method. Doses were selected according this method. In both phases, mice were observed daily for 14 days for mortality, toxic effects and behavioral changes. Restlessness, respiratory distress, seizures, diarrhea, motor activity, posture and reflexes were qualitatively determined. Body weight was also monitored. The internal organs (including the stomach, heart, lung, liver, and kidneys) were removed at the end of experiment and visually examined for lesions.

[2] = tested on: bone marrow polychromatic erythrocytes; format: in vivo; settings: mice, i.p. (LIA, lidocaine 100 mg/kg; cyclophosphamide 40 mg/kg), 24 h, mean±SEM, five animals
Experimental: This test was carried out following standard protocols, [5]. […]. Animals were sacrificed 24 h later and the bone marrow from both femurs was flushed out using 2 mL of saline and centrifuged for 5 min at 3000 rpm. The supernatant was discarded, and the pellet was re-suspended in 0.3 mL of saline. Of this smears were made on glass slides. The slides were fixed with methanol and stained with 10% Wright–Giemsa stain. Cells were blindly scored using a light microscope at 100 X magnification. For the analysis of micronucleated cells, 1000 polychromatic erythrocytes (PCE) per animal were scored. In order to assess the cytotoxic effects of compounds, the ratio of PCE to normochromatic erythrocytes (NCE) was determined in 1000 erythrocytes, [5]. The results are presented as the mean number of micronucleated polychromatic erythrocytes (MNPCE) or the ratio PCE:NCE in individual mice (two smears per animal)±SEM for five animals per group (Table 3).

Q: How did the Dead mice ([1]; Phase I, 10 mg/kg) turn out when `CCN(CC)CC(=O)Nc1c(C)cccc1C` [Lidocaine, reference compound] was run?
A: The Dead mice was 0/3.

Q: What about the Dead mice ([1]; Phase I, 100 mg/kg) of the same compound?
A: The Dead mice was 0/3.

Q: And the Dead mice ([1]; Phase I, 1000 mg/kg)?
A: Its Dead mice is 3/3.

Q: What about the Dead mice ([1]; Phase II, 140 mg/kg) of the same compound?
A: The Dead mice was 1/3.

Q: And the Dead mice ([1]; Phase II, 225 mg/kg)?
A: Its Dead mice is 1/3.

Q: And the Dead mice ([1]; Phase II, 370 mg/kg)?
A: Its Dead mice is 3/3.

Q: And the Dead mice ([1]; Phase II, 600 mg/kg)?
A: The Dead mice was 3/3.

Q: What about the “Macroscopic damage of internal organs (stomach, heart, lung, liver, kidneys)” value ([1]; mice, visual examination at the end of experiment (14 days)) of the same compound?
A: The value was “Neither LIA nor lidocaine produced visible macroscopically damage”.

Q: And the “MNPCE per 1000 PCE” value [2]?
A: The value was 4.6±2.1 ^⁎^, ^#.

Q: And the “PCE:NCE” value [2]?
A: The value was 19.5±1.4.
